Amino acid sequences for entries named in this document (tags omitted). A change or cut given only in a name is not applied to a line headed by its entry.
UniProt Q9R0C9, whole entry: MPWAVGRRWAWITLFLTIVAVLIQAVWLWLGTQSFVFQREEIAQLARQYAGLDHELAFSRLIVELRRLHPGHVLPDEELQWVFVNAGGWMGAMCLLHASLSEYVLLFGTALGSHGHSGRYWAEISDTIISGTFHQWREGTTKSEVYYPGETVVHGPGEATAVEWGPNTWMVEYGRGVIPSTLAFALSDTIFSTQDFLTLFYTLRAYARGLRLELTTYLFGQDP
UniProt Q99720, whole entry: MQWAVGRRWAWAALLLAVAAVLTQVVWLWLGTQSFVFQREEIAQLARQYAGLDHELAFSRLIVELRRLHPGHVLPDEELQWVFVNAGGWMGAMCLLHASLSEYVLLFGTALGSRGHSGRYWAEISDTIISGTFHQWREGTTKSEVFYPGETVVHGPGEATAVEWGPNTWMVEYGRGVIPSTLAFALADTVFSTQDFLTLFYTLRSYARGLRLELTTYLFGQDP
UniProt P34913, whole entry: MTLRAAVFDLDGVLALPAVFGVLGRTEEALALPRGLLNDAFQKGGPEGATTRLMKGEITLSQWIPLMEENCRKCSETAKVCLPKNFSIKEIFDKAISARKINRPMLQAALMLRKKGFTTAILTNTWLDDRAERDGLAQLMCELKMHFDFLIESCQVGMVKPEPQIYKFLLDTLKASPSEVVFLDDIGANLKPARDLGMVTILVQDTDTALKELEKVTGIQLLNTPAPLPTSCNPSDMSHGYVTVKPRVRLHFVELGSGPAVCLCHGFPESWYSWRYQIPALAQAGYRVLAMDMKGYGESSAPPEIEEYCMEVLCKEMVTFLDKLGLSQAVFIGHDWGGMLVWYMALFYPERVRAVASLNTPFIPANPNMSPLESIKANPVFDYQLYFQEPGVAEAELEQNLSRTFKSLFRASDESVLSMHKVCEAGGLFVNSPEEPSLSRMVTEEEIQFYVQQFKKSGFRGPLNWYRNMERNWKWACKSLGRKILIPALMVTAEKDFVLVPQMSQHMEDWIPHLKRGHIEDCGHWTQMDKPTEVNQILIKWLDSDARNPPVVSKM

In patent US20260382586A1, “DUAL INHIBITORS OF SIGMA-1 RECEPTOR AND SOLUBLE EPOXIDE HYDROLASE AND THEIR USE IN THE TREATMENT OF PAIN” (published 2026):

Legend:
[1] = Capsaicin-induced tactile (mechanical) allodynia in mice
S1R = S1R (Rattus norvegicus, UniProt Q9R0C9); experiment: Phenytoin (DPH) modulation of [3H]-(+)-pentazocine binding: agonist/antagonist character on S1R
human S1R = human S1R (Homo sapiens, UniProt Q99720); experiment: Binding to S1R ([3H]-(+)-pentazocine, transfected HEK-293 membranes); conditions: read-out: Binding S1R (Ki); human S1R, [3H]-(+)-pentazocine 5 nM, 37 °C, 120 min, pH 8
[2] = Postoperative pain (laparotomy) model in mice, von Frey threshold; conditions: 10-40 mg/kg s.c., 60, 120 and 180 min after injection
recombinant human sEH = recombinant human sEH (Homo sapiens, UniProt P34913); experiment: Inhibition of sEH (fluorescent assay, CMNPC substrate); conditions: for IC50: read-out: Inhibition sEH (IC50), human sEH, pH 7.4, 30 °C, [S]=5 μM

Structure (SMILES)	Ki (human S1R) [nM]	IC50 (recombinant human sEH) [nM]	also measured
N#Cc1ccc(CNC(=O)C2CCN(Cc3ccccc3)CC2)c(C(F)(F)F)c1	50 to 150	10 to 50	antiallodynic effect ([1]; 2.5 mg/kg s.c., capsaicin 1 μg i.pl., 45 min before evaluation): 75.49%; paw withdrawal latency ([1]; 0.625-10 mg/kg s.c., capsaicin 1 μg i.pl.): dose-dependently increased the paw withdrawal latency in mice up to the value of control nonsensitized mice; antiallodynic effect in capsaicin-induced mechanical hypersensitivity (in words) ([1]; FIGS. 1 and 2): marked antiallodynic effect; ratio of Ki without phenytoin/with phenytoin (S1R): 0.8; functional character on S1R (S1R; 1 mM phenytoin (DPH)): acts as an antagonist for the S1R; sensory (von Frey) threshold / antiallodynic effect after laparotomy [2]: dose-dependently increased the sensory threshold, in particular at 120 min after drug administration; sensory (von Frey) threshold / antiallodynic effect after laparotomy ([2]; listed as Ex. 2): prominent relief of sensory hypersensitivity in laparotomized mice, in particular at 120 min after drug administration; sensory (von Frey) threshold / antiallodynic effect after laparotomy ([2]; listed as compound of the invention): marked antiallodynic effect
C=CCN1CCC2(C)c3cc(O)ccc3CC1C2C (stereo not drawn)			ratio of Ki without phenytoin/with phenytoin (S1R): 6.0
N#Cc1ccc(CNC(=O)C2CCN(Cc3ccc(F)cc3)CC2)c(OC(F)(F)F)c1	< 50	< 10	
COc1ccc(CNC(=O)C2CCN(Cc3ccsc3)CC2)c(OC(F)(F)F)c1	50 to 150	< 10	
O=C(NCc1ccc(Cl)cc1Cl)C1CCN(Cc2ccc(Cl)cc2)CC1	< 50	10 to 50	
O=C(NCc1ccc(F)cc1C(F)(F)F)C1CCN(Cc2ccsc2)CC1	< 50	10 to 50	
O=C(NCc1cccc(F)c1C(F)(F)F)C1CCN(Cc2ccccc2)CC1	< 50	10 to 50	
O=C(NCc1ccc(Cl)cc1C(F)(F)F)C1CCN(CCc2ccccc2)CC1	< 50	10 to 50	
O=C(NCc1ccc(Cl)cc1Br)C1CCN(Cc2ccccc2)CC1	< 50	10 to 50	
COc1ccc(CNC(=O)C2CCN(Cc3ccc(F)cc3)CC2)c(OC(F)(F)F)c1	50 to 150	< 10	
CN1CCN(CCc2ccc(Cl)c(Cl)c2)CC1	50 to 150	> 1000	sEH activity in words (recombinant human sEH; summary of Table 1): inactive in sEH
O=C(NCc1ccc(Cl)cc1Cl)C1CCN(Cc2ccsc2)CC1	< 50	10 to 50	
N#Cc1ccc(CNC(=O)C2CCN(Cc3ccc(F)c(F)c3)CC2)c(C(F)(F)F)c1	< 50	< 10	
N#Cc1ccc(CNC(=O)C2CCN(Cc3ccc(Cl)cc3Cl)CC2)c(C(F)(F)F)c1	< 50	< 10	
O=C(NCc1ccc(Cl)cc1OC(F)(F)F)C1CCN(Cc2ccccc2)CC1	< 50	< 10	
COc1ccc(CN2CCC(C(=O)NCc3ccc(OC)cc3OC(F)(F)F)CC2)cc1	50 to 150	< 10	
COc1ccc(CNC(=O)C2CCN(Cc3ccccc3)CC2)c(C(F)(F)F)c1	50 to 150	< 10	
O=C(NCc1ccc(Br)cc1F)C1CCN(Cc2ccccc2)CC1	50 to 150	50 to 100	
Cc1cccc(CN2CCC(C(=O)NCc3ccc(C#N)cc3C(F)(F)F)CC2)c1	150 to 400	< 10	
N#Cc1ccc(CNC(=O)C2CCN(Cc3ccco3)CC2)c(C(F)(F)F)c1	150 to 400	10 to 50	
O=C(NCc1ccc(Cl)cc1Cl)C1CCN(Cc2ccccc2F)CC1	< 50	10 to 50	

Structure (SMILES)	Ki (human S1R) [nM]	IC50 (recombinant human sEH) [nM]	also measured
COc1ccc(CN2CCC(C(=O)NCc3ccc(Br)cc3OC(F)(F)F)CC2)cc1	< 50	< 10	
COc1ccc(CN2CCC(C(=O)NCc3ccc(Cl)cc3Cl)CC2)cc1	< 50	< 10	
COc1ccc(CN2CCC(C(=O)NCc3ccc(C#N)cc3Cl)CC2)cc1	50 to 150	10 to 50	
N#Cc1ccc(CNC(=O)C2CCN(Cc3ccsc3)CC2)c(C(F)(F)F)c1	50 to 150	< 10	
N#Cc1ccc(CNC(=O)C2CCN(Cc3cccc(F)c3)CC2)c(C(F)(F)F)c1	150 to 400	< 10	
COc1ccc(CNC(=O)C2CCN(Cc3ccc(I)cc3)CC2)c(OC(F)(F)F)c1	< 50	< 10	
O=C(NCc1ccc(F)cc1C(F)(F)F)C1CCN(Cc2ccc(I)cc2)CC1	< 50	< 10	
O=C(NCc1ccc(Br)cc1OC(F)(F)F)C1CCN(CCc2ccccc2)CC1	< 50	< 10	
N#Cc1ccc(CNC(=O)C2CCN(Cc3ccccc3F)CC2)c(C(F)(F)F)c1	50 to 150	< 10	
O=C(NCc1ccc(Br)cc1OC(F)(F)F)C1CCN(Cc2ccccc2)CC1	< 50	< 10	
COc1ccc(CN2CCC(C(=O)NCc3ccc(C#N)cc3OC(F)(F)F)CC2)cc1	< 50	< 10	
O=C(NCc1ccc(Cl)cc1Cl)C1CCN(c2ncccn2)CC1	> 1000	10 to 50	
COc1ccc(CN2CCC(C(=O)NCc3ccc(Br)cc3C(F)(F)F)CC2)cc1	< 50	< 10	
N#Cc1ccc(CNC(=O)C2CCN(Cc3ccc(Cl)c(Cl)c3)CC2)c(C(F)(F)F)c1	50 to 150	< 10	
O=C(NCc1ccc(Cl)cc1OC(F)(F)F)C1CCN(CCc2ccccc2)CC1	< 50	< 10	
O=C(NCc1ccc(Br)cc1C(F)(F)F)C1CCN(Cc2ccsc2)CC1	< 50	< 10	
O=C(NCc1ccc(Cl)cc1Cl)C1CCN(Cc2ccc(C(F)(F)F)cc2)CC1	50 to 150	< 10	
O=C(NCc1ccc(Br)cc1OC(F)(F)F)C1CCN(Cc2cccc(F)c2)CC1	< 50	< 10	
O=C(NCc1cccc(Cl)c1Cl)C1CCN(Cc2ccccc2)CC1	< 50	< 10	
N#Cc1ccc(CNC(=O)C2CCN(Cc3ccncc3)CC2)c(C(F)(F)F)c1	150 to 400	< 10	
